System: plasma liver enzymes, lipids and cytokines
Details: endpoint; for Plasma TG / NASH-diet-induced increase in plasma AST, ALT and ALP: glycine 0.33, DT-109 0.125 or 0.5 mg/g/day; for NASH-diet-induced increase in plasma AST, ALT and ALP: 12 weeks

Compound | Plasma MCP-1/CCL2 and resistin (NASH-diet) | Plasma TC (NASH-diet, 0.5 mg/g/day DT-109) | Plasma TG (NASH-diet) | NASH-diet-induced increase in plasma AST, ALT and ALP
Gly-Gly-Leu [DT-109] | lower | decreased | decreased | attenuated
NCC(=O)O [glycine, reference compound] | lower | – | decreased | attenuated

Reference: US20230181673A1, “TRI-PEPTIDES AND TREATMENT OF METABOLIC, CARDIOVASCULAR AND INFLAMMATORY DISORDERS” (Diapin Therapeutics, LLC, priority 2018, published 2023)
